# Earlier results, collected in patent publication US20260224597A1, “METHODS FOR ACTIVATING IMMUNE CELLS TO KILL BACTERIA” (The Texas A&M University System, priority 2023, published 2026).
# By UniProt entry, the sequences of proteins in these tests, tags left out.
# UniProt Q92551, whole entry: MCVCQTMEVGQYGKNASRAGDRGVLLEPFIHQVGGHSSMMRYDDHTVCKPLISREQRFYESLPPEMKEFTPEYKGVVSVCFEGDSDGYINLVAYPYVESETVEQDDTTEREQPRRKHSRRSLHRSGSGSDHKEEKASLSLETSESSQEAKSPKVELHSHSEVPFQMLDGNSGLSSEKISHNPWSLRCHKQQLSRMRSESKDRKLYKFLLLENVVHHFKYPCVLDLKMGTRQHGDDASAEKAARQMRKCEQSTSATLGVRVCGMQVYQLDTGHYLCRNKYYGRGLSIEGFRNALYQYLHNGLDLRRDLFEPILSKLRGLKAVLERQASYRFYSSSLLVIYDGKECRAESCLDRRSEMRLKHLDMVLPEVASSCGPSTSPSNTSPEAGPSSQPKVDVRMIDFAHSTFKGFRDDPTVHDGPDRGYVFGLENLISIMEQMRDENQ
# Target: IP6K1 (Homo sapiens, UniProt Q92551)
# Conditions: read-out: IC50 as to IP6K1; Liao 2021; cited from earlier work
compound,measurement,value
O=C(O)c1ccc2c(c1)C1(CCN(C(=O)c3ccc(Cl)cc3)CC1)C(=O)N2,IC50,20 nM
